# Source: PMC2862695 (The Journal of organic chemistry, 2009)
# By UniProt entry, the sequences of proteins in these tests, tags left out.
# UniProt P27361, whole entry: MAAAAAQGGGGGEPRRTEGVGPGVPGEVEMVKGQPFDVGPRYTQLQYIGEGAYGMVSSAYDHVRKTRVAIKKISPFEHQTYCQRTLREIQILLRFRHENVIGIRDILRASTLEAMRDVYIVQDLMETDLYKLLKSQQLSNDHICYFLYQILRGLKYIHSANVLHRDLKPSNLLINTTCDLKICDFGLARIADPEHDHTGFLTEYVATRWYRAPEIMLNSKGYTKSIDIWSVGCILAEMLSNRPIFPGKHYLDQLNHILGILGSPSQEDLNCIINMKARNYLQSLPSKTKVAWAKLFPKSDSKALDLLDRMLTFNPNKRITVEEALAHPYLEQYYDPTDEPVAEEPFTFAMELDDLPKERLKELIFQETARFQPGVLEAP
# UniProt P28482, whole entry: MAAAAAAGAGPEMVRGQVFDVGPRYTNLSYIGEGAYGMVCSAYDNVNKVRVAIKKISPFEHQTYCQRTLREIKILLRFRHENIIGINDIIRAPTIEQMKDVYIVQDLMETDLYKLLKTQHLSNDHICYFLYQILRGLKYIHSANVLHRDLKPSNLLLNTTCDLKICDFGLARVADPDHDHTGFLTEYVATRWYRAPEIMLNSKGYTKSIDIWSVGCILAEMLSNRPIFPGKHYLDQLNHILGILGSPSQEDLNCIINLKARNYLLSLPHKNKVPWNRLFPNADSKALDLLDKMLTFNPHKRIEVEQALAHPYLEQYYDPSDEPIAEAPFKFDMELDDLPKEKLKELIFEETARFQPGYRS
# Tests used:
# ERK1 [1] = target: T1, ERK1 (Homo sapiens, UniProt P27361); test: dissociation constant against ERK1; format: binding; details: read-out: Kd ERK1
# ERK1 [2] = target: T1, ERK1; details: read-out: IC50 against ERK1; enzymatic assay; ref 2 (Ohori and co-workers); cited from earlier work
# ERK2 [3] = target: T2, ERK2 (Homo sapiens, UniProt P28482); details: read-out: IC50 against ERK2; enzymatic assay; ref 2 (Ohori and co-workers); cited from earlier work
# ERK2 [4] = target: T2, ERK2; details: read-out: Kd ERK2
smiles,measurement,setting,value
Nc1[nH]nc2nnc(-c3c(-c4ccccc4)nn4ccccc34)cc12 [FR180204],Kd,ERK1 [1],160 nM
same,IC50,ERK1 [2],510 nM
same,IC50,ERK2 [3],330 nM
same,Kd,ERK2 [4],420 nM
